Structures are written as SMILES. The source made the active and inactive calls. No cut-off for these calls is given here.

Sequences of proteins named here, by UniProt entry; tags and fusion partners are left off.
UniProt Q13547, whole entry: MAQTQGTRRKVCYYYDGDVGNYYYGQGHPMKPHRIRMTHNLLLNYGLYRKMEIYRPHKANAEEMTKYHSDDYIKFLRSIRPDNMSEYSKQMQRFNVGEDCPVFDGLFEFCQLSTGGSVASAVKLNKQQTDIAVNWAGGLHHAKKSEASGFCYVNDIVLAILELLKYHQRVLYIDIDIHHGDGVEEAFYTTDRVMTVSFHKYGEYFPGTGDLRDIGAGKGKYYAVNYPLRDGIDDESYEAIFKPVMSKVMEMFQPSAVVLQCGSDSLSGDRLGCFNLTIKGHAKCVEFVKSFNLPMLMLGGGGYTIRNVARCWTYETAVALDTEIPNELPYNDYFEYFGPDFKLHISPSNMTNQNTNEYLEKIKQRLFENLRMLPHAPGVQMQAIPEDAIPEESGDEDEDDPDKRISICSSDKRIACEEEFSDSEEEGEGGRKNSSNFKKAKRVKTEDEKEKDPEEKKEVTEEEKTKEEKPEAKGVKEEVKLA

Drawing on ChEMBL document CHEMBL5518175, “Design, synthesis, and biological evaluation of HDAC6 inhibitors targeting L1 loop and serine 531 residue” (Eur J Med Chem, 2024), this text covers inhibition for one compound.

This test has as its target Histone deacetylase 1 (Homo sapiens, UniProt Q13547). In words: Inhibition of HDAC1 in human NCI-H1975 cells assessed as increase in Histone H3 acetylation upto 5 uM incubated for 24 hrs by Western blotting analysis. It is filed as cell-based. On the technique in general: A western blot detects proteins with antibodies after separation by electrophoresis.

Take `O=C(NO)c1ccc(CN(Cc2ccccc2)C(=O)c2ccccc2)cc1`: the inhibition entry is “inactive”.
